1 molecule from patent publication US5196424A, “N-[2-amino-4-substituted[[(pyrrollo or pyrido)[2,3-d]pyrimidinyl]-alkyl]benzoyl]-L-glutamic acids” (priority 1992, dated 1993) can be followed below.

SMILES strings stand for the structures. pIC50: −log10 of the molar value.

The target in the test is T1, human dihydrofolate reductase (DHFR) (Homo sapiens, UniProt P00374).
T1 construct: was obtained from human leukemic lymphoblasts (WI-L2/M4 cells); endogenous in cells; host or cells: WI-L2/M4 human leukemic lymphoblasts; enzyme purified from the cells according to Delcamp et al., Biochemistry 22, 633-639 (1983)
T1 sequence (P00374 1-187): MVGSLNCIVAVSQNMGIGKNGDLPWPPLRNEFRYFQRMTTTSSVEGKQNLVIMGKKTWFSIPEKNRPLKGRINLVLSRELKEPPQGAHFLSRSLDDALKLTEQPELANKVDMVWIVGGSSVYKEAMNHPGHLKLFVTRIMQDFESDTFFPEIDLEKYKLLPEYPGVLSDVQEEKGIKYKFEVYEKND
As to the kind of experiment: Inhibition of isolated human dihydrofolate reductase (Table III). The class given is biochemical.

What is called pIC50 is −log10 of the IC50, conventionally taken in molar units. Read a high pIC50 as a small IC50. `Nc1ncc2c(n1)NCC(CCc1ccc(C(=O)N[C@@H](CCC(=O)O)C(=O)O)cc1)C2` (stereo partly drawn) [Example 7, N-[2-amino-[[tetrahydropyrido[2,3-d]-pyrimidin-6-yl]-ethyl]benzoyl]-L-glutamic acid] gave a negative-log IC50 (pIC50) of 7.19.
